{"source": "paper PMC7743948", "about": "“D-LL-31 enhances biofilm-eradicating effect of currently used antibiotics for chronic rhinosinusitis and its immunomodulatory activity on human lung epithelial cells” (PLoS ONE, 2020)", "key": {"S. epidermidis": {"system": "S. epidermidis", "assay": "Broth microdilution MIC/MBC of conventional antibiotics, planktonic form", "assay_type": "cell-based", "details": "Staphylococcus epidermidis, broth microdilution then plate count on MHA", "method": "(§1) MICs and MBCs of conventional antibiotics were determined using a broth microdilution technique. […] Only P. aeruginosa was additionally tested for susceptibility to TOB (Sigma-Aldrich) (0.03–52 μM or 0.01–25 μg/ml). Bacterial suspensions (5 x 10^5 CFU/ml) were added to the microtiter plates, which were then incubated at 37 °C for 24 h. Antibiotic-free culture was used as a control. […] The results were confirmed using a microplate reader at OD620 (Sunrise™, TECAN, Australia). The plate count technique was further used to determine the MBC values on Mueller Hinton agar (MHA) (Himedia®). Each experiment was performed independently three times in triplicate."}, "P. aeruginosa": {"system": "P. aeruginosa", "assay": "Broth microdilution MIC/MBC of conventional antibiotics, planktonic form", "assay_type": "cell-based", "details": "Pseudomonas aeruginosa, MHB, 5 x 10^5 CFU/ml, 37 °C, 24 h, CLSI", "method": "as §1"}}, "note": "Values joined by “and” are separate entries in the source; they are usually repeats but may differ in a detail not shown here. Equal entries are not always repeated.", "data": [{"smiles": "CC1(C)S[C@@H]2[C@H](NC(=O)[C@H](N)c3ccc(O)cc3)C(=O)N2[C@H]1C(=O)O", "note": "[AMX, amoxicillin]", "values": [{"measurement": "MBC", "setting": "S. epidermidis", "result": "17100 µM and 6250 µg/mL"}, {"measurement": "MIC", "setting": "P. aeruginosa", "result": 17.1, "unit": "mM"}]}]}
